# Target: human recombinant ATX (Homo sapiens (Human), UniProt Q13822)
# Test: Autotaxin (ATX) activity Quanta Red assay
# Format: biochemical
# Settings: 15 μM Rac-1-Palmitoyl-glycero-3-phosphocholine, 2 hours room temperature, determined in duplicate
# Description: The ATX enzyme assay (Quanta Red assay) described in accompanying Example section may be used to measure the pharmacological effects of the compounds of the present invention.
# Autotaxin (ATX) Activity Quanta Red Assay
# Measuring ATX activity using an enzyme coupled Quanta Red assay (Thermo Scientific—Pierce Protein Research Products, Product #15159) was determined as follows. 8 μL human recombinant ATX (final concentration 0.8 μg/mL) in 1× Assay buffer containing 50 mM Tris-HCl (pH 8.0), 5 mM CaCl2 was added to an opaque black flat-bottom 384-well plate (Corning, #3575) containing 2 μL test compound in 40% DMSO (4% final DMSO concentration). 10 μL of Quanta Red, Horseradish peroxidase (HRP), Choline Oxidase (CO), Rac-1-Palmitoyl-glycero-3-phosphocholine solution (final concentration 1:250 for Quanta Red, 0.5units/ml HRP, 0.5units/ml CO, 15 μM Rac-1-Palmitoyl-glycero-3-phosphocholine) in 1× assay buffer (as described previously) was added to each well to start the reaction and the plate was incubated at room temperature for 2 hours. The reaction was stopped after 2 hours with a 20 μL addition of Quanta Red Stop solution (1:20 dilution in distilled water). The above-described mixture with DMSO alone was used as a positive control whereas that with DMSO alone without ATX was taken as a negative control.
# For each test compound, ten concentrations were measured covering a range of 6.1 nM to 120 μM to determine IC50 values. The top concentration was decreased to 1.2 μM when a test compound's IC50 value was evaluated in low nanomolar range. Fluorescence was determined in a BMG Labtech Pherastar plus plate reader ([…]). Data were analysed using Excel fit software. IC50 values were determined in duplicate.
row,Compound,IC50 [nM]
1,"O=C(N[C@H]1CC(=O)N(c2ccc(CN3CCCCC3)cc2)C1)c1nnc(CCc2ccc(Cl)cc2)s1 [Compound F133, 5-[2-(4-chlorophenyl)ethyl]-N-[(3S)-5-oxo-1-[4-(1-piperidylmethyl)phenyl]pyrrolidin-3-yl]-1,3,4-thiadiazole-2-carboxamide]",3
2,"O=C(NC1CC(=O)N(c2ccc(CN3CCCCC3)cc2)C1)c1nnc(CCc2ccc(Cl)cc2)s1 (stereo not drawn) [Compound F139, 5-[2-(4-chlorophenyl)ethyl]-N-[5-oxo-1-[4-(1-piperidylmethyl)phenyl]pyrrolidin-3-yl]-1,3,4-thiadiazole-2-carboxamide]",5
3,"Cn1nc(CCc2ccc(Cl)cc2)cc1NC(=O)C1CC(=O)N(c2ccc(CN3CCOCC3)cc2)C1 (stereo not drawn) [Compound F202, N-[5-[2-(4-chlorophenyl)ethyl]-2-methyl-pyrazol-3-yl]-1-[4-(morpholinomethyl)phenyl]-5-oxo-pyrrolidine-3-carboxamide]",1550

# Reference: patent publication US10138230B2, “Autotaxin inhibitors” (CANCER RESEARCH TECHNOLOGY LIMITED, priority 2015, dated 2018)
